From patent publication US12427210B2, “Compounds comprising a fibroblast activation protein ligand and use thereof” (priority 2019, dated 2025)

Columns and labels:
[1] = biological target: T1, A20 (Homo sapiens (Human)) (UniProt P21580)
T1 sequence: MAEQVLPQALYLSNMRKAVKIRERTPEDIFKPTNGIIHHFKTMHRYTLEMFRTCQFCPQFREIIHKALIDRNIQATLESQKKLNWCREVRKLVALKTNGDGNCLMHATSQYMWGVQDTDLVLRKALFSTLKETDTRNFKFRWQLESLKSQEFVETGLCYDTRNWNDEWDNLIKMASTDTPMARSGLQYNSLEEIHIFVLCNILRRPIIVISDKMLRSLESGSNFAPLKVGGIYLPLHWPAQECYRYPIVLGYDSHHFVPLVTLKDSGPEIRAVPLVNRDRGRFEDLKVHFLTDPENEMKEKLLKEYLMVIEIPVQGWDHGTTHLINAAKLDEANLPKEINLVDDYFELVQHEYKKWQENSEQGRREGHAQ

[2] = biological target: T2, Deubiquitinase OTUD6B (Homo sapiens (Human)) (UniProt Q8N6M0)
T2 sequence: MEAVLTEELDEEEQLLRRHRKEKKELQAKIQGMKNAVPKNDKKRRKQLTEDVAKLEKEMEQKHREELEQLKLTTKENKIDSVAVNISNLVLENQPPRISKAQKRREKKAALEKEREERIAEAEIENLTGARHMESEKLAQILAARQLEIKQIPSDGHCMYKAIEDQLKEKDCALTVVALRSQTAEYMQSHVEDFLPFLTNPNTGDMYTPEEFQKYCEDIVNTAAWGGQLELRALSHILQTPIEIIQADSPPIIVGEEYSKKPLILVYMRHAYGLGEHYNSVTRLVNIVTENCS

[3] = biological target: T3, Ubiquitin carboxy-terminal hydrolase L3 (Homo sapiens (Human)) (UniProt P15374)
T3 sequence: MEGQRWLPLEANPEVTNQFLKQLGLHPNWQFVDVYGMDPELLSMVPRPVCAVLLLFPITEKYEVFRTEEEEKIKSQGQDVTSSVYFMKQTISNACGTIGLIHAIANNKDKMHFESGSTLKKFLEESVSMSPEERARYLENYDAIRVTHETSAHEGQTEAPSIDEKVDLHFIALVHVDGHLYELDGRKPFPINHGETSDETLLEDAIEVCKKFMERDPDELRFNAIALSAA

[4] = biological target: Ubiquitin carboxyl-terminal hydrolase 10 (Homo sapiens (Human)) (UniProt Q14694)
[5] = biological target: Ubiquitin carboxyl-terminal hydrolase 14 (Homo sapiens (Human)) (UniProt P54578)
[6] = biological target: T4, Ubiquitin carboxyl-terminal hydrolase 2 (Homo sapiens (Human)) (UniProt O75604)
T4 sequence: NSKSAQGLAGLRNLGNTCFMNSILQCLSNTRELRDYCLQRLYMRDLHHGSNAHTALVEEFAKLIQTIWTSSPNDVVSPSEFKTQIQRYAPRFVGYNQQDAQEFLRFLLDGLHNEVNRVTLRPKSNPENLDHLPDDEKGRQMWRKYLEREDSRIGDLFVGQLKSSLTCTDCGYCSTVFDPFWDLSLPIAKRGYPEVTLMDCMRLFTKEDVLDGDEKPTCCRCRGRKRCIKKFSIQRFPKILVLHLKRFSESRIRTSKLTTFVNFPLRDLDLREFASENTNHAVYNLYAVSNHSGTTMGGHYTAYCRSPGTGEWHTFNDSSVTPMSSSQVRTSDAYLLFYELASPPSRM

[7] = biological target: T5, Ubiquitin carboxyl-terminal hydrolase 5 (Homo sapiens (Human)) (UniProt P45974)
T5 sequence: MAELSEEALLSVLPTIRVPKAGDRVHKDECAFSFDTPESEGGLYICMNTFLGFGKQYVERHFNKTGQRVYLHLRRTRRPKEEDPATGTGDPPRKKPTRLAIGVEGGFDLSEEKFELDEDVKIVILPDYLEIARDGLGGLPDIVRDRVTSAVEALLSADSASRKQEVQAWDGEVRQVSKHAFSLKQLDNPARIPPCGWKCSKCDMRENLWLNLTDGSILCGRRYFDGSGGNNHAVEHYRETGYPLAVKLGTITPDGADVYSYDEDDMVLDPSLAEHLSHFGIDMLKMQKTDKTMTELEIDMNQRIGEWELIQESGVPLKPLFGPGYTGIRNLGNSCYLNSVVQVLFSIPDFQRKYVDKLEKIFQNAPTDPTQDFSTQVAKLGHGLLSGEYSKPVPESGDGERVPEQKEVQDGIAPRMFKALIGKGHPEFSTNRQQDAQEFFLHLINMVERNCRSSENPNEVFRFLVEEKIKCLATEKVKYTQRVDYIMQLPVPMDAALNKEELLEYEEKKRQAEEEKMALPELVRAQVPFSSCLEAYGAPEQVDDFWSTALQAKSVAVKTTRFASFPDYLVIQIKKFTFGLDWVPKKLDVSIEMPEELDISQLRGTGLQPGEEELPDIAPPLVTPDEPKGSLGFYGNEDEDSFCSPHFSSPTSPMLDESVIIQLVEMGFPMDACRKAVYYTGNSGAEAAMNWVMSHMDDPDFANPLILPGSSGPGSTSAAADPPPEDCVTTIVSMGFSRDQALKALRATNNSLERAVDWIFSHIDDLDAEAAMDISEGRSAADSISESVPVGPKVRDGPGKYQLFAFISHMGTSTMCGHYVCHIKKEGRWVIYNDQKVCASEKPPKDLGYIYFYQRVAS

[8] = biological target: Ubiquitin carboxyl-terminal hydrolase 7 (Homo sapiens (Human)) (UniProt Q93009)
[9] = biological target: Ubiquitin carboxyl-terminal hydrolase 8 (Homo sapiens (Human)) (UniProt P40818)

Percentage inhibition (%), Reference (% inhibition at 1 µM) [1]: 99 | Percentage inhibition (%), Reference (% inhibition at 1 µM) [2]: 97 | Percentage inhibition (%), Reference (% inhibition at 10 nM) [3]: 95 | Percentage inhibition (%), Reference (% inhibition at 1 µM) [4]: 82 | Percentage inhibition (%), Reference (% inhibition at 100 nM) [5]: 96 | Percentage inhibition (%), Reference (% inhibition at 1 µM) [6]: 91 | Percentage inhibition (%), Reference (% inhibition at 1 µM) [7]: 84 | Percentage inhibition (%), Reference (% inhibition at 1 µM) [8]: 95 | Percentage inhibition (%), Reference (% inhibition at 1 µM) [9]: 73
Substance: Ub-Aldehyde (from UniProt P0CG48)
